According to patent US20230174988A1, “METHODS FOR INDUCING BILE ACID SULFOTRANSFERASE SULT2A FOR TREATING METABOLIC DISORDERS” (priority 2020, published 2023):

Target: T1, TGR5 (Homo sapiens, UniProt Q8TDU6)
T1 sequence (Q8TDU6 1-330): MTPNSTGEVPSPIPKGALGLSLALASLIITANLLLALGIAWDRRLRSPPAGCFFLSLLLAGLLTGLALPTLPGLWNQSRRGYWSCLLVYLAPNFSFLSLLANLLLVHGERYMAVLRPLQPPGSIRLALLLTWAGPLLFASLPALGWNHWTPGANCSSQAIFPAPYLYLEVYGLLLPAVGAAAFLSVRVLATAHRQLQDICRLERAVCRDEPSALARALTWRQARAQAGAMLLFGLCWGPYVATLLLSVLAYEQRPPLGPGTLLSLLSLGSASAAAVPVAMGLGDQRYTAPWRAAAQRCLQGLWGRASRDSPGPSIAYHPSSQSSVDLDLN
Experiment: TGR5 activation in L-cells, dose response curve

## C[C@H](CCC(=O)O)[C@H]1CC[C@H]2[C@@H]3[C@H](OS(=O)(=O)O)C[C@@H]4C[C@H](O)CC[C@]4(C)[C@H]3C[C@H](O)[C@]12C [CA7S, cholic acid 7-sulfate]
  EC50: 13 nM
